Assay results as given in patent publication US20130345254A1, “CYCLOHEXANE SUBSTITUTED AMINO CYCLOPENTANE DERIVATIVES AS USEFUL CCR2 ANTAGONISTS” (priority 2011, published 2013).

Sequences of proteins named here, by UniProt entry; tags and fusion partners are left off.
UniProt P41597, whole entry: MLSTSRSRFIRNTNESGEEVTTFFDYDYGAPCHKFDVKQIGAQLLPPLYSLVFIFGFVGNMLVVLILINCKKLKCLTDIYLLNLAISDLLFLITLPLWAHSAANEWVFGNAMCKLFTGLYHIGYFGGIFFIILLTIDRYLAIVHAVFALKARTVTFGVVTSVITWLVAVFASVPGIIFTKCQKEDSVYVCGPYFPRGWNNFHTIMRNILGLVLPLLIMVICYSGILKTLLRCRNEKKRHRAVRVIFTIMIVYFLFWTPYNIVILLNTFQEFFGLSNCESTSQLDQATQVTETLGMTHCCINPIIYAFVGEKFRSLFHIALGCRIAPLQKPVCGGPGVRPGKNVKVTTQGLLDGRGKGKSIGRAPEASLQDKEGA

Molecular target: human CCR2 (Homo sapiens, UniProt P41597)
Assay: CCR2 membrane binding assay (SPA, 125I-rhMCP-1 competition)
Conditions: membranes from Ba/F3 cells transfected with human CCR2; 0.03 nM 125I-rhMCP-1; 4 h room temperature
Description: The radio-ligand binding assay was done using scintillation proximity assay (SPA) technology. Briefly, membranes (1 μg per assay point) from Ba/F3 cells transfected with human CCR2, and wheat germ agglutinin-coated SPA beads (80 μg per point; Amersham, Arlington Heights, Ill.), were pre-incubated for 30 min at room temperature in CCR2 buffer (50 mM HEPES (pH=7.4), 10 mM MgCl2, 10 mM NaCl, 1 mM CaCL2, 0.1% BSA, 10 μg/ml Saponin). At this point pre-bound SPA bead, membrane complex was incubated at room temperature for 4 h with varying concentrations of punitive CCR2 antagonists (in 1% DMSO, final) and 0.03 nM ^125I-rhMCP-1 in CCR2 Buffer (S.A. 2200 Ci/mmol, PerkinElmer Life and Analytical Science, Boston, Mass.; NEX332). Binding competition was measured using a 1450 Microbeta Trilux counter (Wallac, Gaithersburg, Md.). Binding constants (IC50 and slope) were calculated using GraphPad Prism software (GraphPad Software, Inc., La Jolla Calif.).

SMILES | IC50 [nM]
O=C(NCc1cc(C(F)(F)F)cc(C(F)(F)F)c1)[C@H]1CC[C@@H](NC2CCC(=Cc3ccccc3)CC2)C1 (some centres unmarked) | 3450
CC(C)[C@]1(C(=O)N2CCc3ncc(C(F)(F)F)cc3C2)CC[C@@H](NC2CCC(=Cc3ccccc3)CC2)C1 (some centres unmarked) | 18
